Earlier results in patent US10765111B1, “Cryosolutions and uses thereof” (Akron Biotechnology, LLC, priority 2014, dated 2020).

- remaining, retained (retained for several more days after intravenous infusion): 30%
- excreted in urine (within the first 24 hours after intravenous infusion): ~70%
Substance: dextran-40
